# Earlier results, collected in PubChem BioAssay AID1811 (Shanghai Institute of Organic Chemistry, 2009).
# This is one part of the list. Calls of active or inactive are those of the source. Unless stated, no cut-off for active and inactive is given here.
# System: 1ZXV A
# Experiment: PubChem AID 1811
# Details: PDB complex binding affinities from literature
compound,measurement,value
O=C(O)CCN1C(=O)/C(=C\c2ccc(-c3ccc(Cl)cc3)o2)SC1=S,outcome,active
